Where two headings read alike, the source gives them in different places.
Substance: oxyntomodulin
- Tmax (inhaled oxyntomodulin/FDKP powder, male ZDF rats): less than 15 min
- maximal plasma concentration (rats receiving 1.5 mg): 311 µg/mL
- maximal plasma concentration (rats receiving 3 mg): 660 µg/mL

Source: patent US20150231067A1, “METHOD AND COMPOSITION FOR TREATING HYPERGLYCEMIA” (MannKind Corporation, priority 2012, published 2015)
